# Read-outs that look alike come from different tables or passages of the source.
# Biological target: T1, human PLK4 (Homo sapiens, UniProt O00444)
# T1 construct: amino terminal GST fusion of residues 1-391 of human PLK4; made in house; host or cells: E. coli
# T1 sequence (O00444 1-391): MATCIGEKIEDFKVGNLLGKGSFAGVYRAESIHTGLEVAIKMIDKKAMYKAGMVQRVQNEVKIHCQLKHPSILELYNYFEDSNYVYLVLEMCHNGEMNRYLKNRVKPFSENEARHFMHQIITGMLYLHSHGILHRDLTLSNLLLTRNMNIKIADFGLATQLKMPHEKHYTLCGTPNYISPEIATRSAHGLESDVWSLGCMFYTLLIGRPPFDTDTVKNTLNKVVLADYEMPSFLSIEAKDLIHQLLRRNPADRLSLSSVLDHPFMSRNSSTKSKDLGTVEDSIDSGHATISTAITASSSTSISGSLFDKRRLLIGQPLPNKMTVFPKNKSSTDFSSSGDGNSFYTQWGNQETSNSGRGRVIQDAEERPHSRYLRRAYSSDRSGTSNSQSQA
# Assay: PLK4 inhibition assay (indirect ELISA)
# Assay type: biochemical
Compound,IC50 (read-out: IC50 Ranges PLK4) [nM],IC50 [nM]
COc1ccc2c(c1)[C@]1(C[C@H]1c1ccc3c(-c4ccc(N5CCOCC5)nc4)n[nH]c3c1)C(=O)N2 (relative stereo) [Example A20],< 100,
"COc1ccc2c(c1)[C@]1(C[C@H]1c1ccc3c(-c4ccc(CN(C)C)cc4)n[nH]c3c1)C(=O)N2 (relative stereo) [Example A166, (1R*,2S*)-2-(3-(4-((dimethylamino)methyl)phenyl)-1H-indazol-6-yl)-5′-methoxyspiro[cyclopropane-1,3′-indolin]-2′-one 2,2,2-trifluoroacetate]",,< 100

# Source: US8263596B2, “Kinase inhibitors and method of treating cancer” (University Health Network, priority 2010, dated 2012)
